# Experimental data reported in PubChem BioAssay (EPA / NIEHS).
# Amino acid sequences for entries named in this document (tags omitted).
# UniProt P16581, whole entry: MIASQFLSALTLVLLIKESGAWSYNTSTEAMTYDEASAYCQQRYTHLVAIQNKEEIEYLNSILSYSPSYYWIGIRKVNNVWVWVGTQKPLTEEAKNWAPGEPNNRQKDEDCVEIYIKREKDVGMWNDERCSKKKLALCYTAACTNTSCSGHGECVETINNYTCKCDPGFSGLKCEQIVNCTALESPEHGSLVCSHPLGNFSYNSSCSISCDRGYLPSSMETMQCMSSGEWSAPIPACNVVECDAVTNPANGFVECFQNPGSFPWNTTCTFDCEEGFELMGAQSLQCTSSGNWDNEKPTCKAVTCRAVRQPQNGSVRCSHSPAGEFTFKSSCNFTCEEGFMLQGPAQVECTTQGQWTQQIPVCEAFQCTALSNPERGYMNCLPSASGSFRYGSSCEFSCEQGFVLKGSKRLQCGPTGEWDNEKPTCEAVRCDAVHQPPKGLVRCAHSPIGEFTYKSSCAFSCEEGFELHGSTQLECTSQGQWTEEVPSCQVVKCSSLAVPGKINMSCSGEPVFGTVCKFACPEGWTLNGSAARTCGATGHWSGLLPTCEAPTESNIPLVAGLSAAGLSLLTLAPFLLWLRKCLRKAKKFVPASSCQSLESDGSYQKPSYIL
# UniProt P01375, whole entry: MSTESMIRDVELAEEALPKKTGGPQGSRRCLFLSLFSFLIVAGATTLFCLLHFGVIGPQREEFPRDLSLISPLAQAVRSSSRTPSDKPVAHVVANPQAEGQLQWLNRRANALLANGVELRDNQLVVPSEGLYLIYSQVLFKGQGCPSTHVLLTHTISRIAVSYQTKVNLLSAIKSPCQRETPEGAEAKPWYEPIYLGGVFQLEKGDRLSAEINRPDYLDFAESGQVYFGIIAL
# This is a selection; strong and weak results do not stand in their true shares. Activity calls are given as the source filed them. The calls were made as follows: active = hit-call score of the fitted dose curve at least 0.9, where 1 is the maximum; inactive = score below 0.9.
# Columns and labels:
# [1] = read-out: C-C motif chemokine 2 (Homo sapiens) (UniProt P13500); assay: BSK_KF3CT_MCP1: BioMAP Diversity Plus: KF3CT Assay for Monocyte Chemoattractant Protein 1 (MCP1/CCL2) Biomarker Activity (AID 2283073); conditions: actives raise or lower the signal; primary human keratinocytes with fibroblasts
# Method in brief: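 Keratinocytes and foreskin fibroblasts were co-cultured, dosed with chemical, and sampled 24 h later. MCP-1 was quantified by ELISA, and the endpoint was analyzed with bidirectional fitting using DMSO as negative control.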
# [2] = read-out: Matrix Metallopeptidase 9 (MMP9), MMP9 (gene 4318); assay: BSK_KF3CT_MMP9: BioMAP Diversity Plus: KF3CT Assay for Matrix Metallopeptidase 9 (MMP9) Biomarker Activity (AID 2283074); conditions: actives raise or lower the signal; primary human keratinocytes with fibroblasts
# Method in brief: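 Human keratinocyte and foreskin fibroblast co-culture exposed to chemicals for 24 h; MMP9 biomarker measured by ELISA, bidirectional fitting relative to DMSO; cytotoxicity tracked by SRB total protein staining in parallel cultures.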
# [3] = read-out: urokinase plasminogen activator (uPA), PLAU (gene 5328); assay: BSK_KF3CT_uPA: BioMAP Diversity Plus: KF3CT Assay for urokinase plasminogen activator (uPA) Biomarker Activity (AID 2283075); conditions: actives raise or lower the signal; primary human keratinocytes with fibroblasts
# Method in brief: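 Primary human keratinocyte/foreskin fibroblast co-culture exposed to chemical; uPA measured by ELISA at 24 h. Bidirectional fit versus DMSO, with parallel SRB total-protein staining for cytotoxicity.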
# CD40, CD40 (gene 958) [4] = assay: BSK_LPS_CD40: BioMAP Diversity Plus: LPS Assay for CD40 Biomarker Activity (AID 2283076); conditions: actives raise or lower the signal; primary human HUVEC with PBMC
# Method in brief: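 CD40 signal, measured by ELISA, is fitted in both directions relative to DMSO vehicle. The system is an LPS-driven human vascular primary co-culture of endothelial cells and PBMC, sampled 24 h after compound addition.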
# [5] = read-out: E-selectin (Homo sapiens) (UniProt P16581); assay: BSK_LPS_Eselectin: BioMAP Diversity Plus: LPS Assay for Eselectin Biomarker Activity (AID 2283077); conditions: actives raise or lower the signal; primary human HUVEC with PBMC
# Method in brief: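 Signal of E-selectin, detected by ELISA, served as the endpoint; cells were umbilical vein endothelium with PBMC, read 24 h after treatment. DMSO defined baseline, and both increases and decreases were fitted.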
# [6] = read-out: Interleukin-8 (IL8), CXCL8 (gene 3576); assay: BSK_LPS_IL8: BioMAP Diversity Plus: LPS Assay for Interleukin-8 (IL8) Biomarker Activity (AID 2283078); conditions: actives raise or lower the signal; primary human HUVEC with PBMC
# Method in brief: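 Endothelial cells and PBMC from human donors are co-cultured, treated with chemicals and LPS, then assayed for IL-8 by ELISA after 24 h. Parallel SRB staining (0.1% SRB after 10% TCA fixation, 560 nm) flags cytotoxicity.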
# [7] = BSK_LPS_SRB: Viability Assessment in the BioMAP Diversity Plus: LPS Assay (AID 2283079); conditions: primary human HUVEC with PBMC;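 also: total protein by sulforhodamine B absorbance as a cytotoxicity measure; measured one day after compound addition; fitted in both directions against DMSO so loss or gain of signal counts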
# Method in brief: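 Overt cytotoxicity was gauged by sulforhodamine B total-protein staining in a primary human vascular endothelial and mononuclear cell co-culture 24 h post-dosing. Activity was fitted in both directions relative to DMSO.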
# [8] = read-out: Interleukin-1 alpha (IL1a), IL1A (gene 3552); assay: BSK_LPS_IL1a: BioMAP Diversity Plus: LPS Assay for Interleukin-1 alpha (IL1a) Biomarker Activity (AID 2283080); conditions: actives raise or lower the signal; primary human HUVEC with PBMC
# Method in brief: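 Measured: IL-1 alpha via ELISA at 24 h in LPS-activated human umbilical vein endothelium–PBMC co-culture. Baseline: DMSO, bidirectional fitting.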
# [9] = read-out: Monocyte Chemoattractant Protein-1 (MCP1), CCL2 (gene 6347); assay: BSK_LPS_MCP1: BioMAP Diversity Plus: LPS Assay for Monocyte Chemoattractant Protein-1 (MCP1) Biomarker Activity (AID 2283081); conditions: actives raise or lower the signal; primary human HUVEC with PBMC
# Method in brief: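 LPS-stimulated HUVEC/PBMC co-culture; chemical, 24 h; MCP-1 by ELISA; bidirectional fit vs DMSO; cytotoxicity via SRB (0.1% stain, 10% TCA fix, 560 nm) in parallel wells.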
# [10] = BSK_LPS_PGE2: BioMAP Diversity Plus: LPS Assay for Prostaglandin E2 (PGE2) Biomarker Activity (AID 2283082); conditions: actives raise or lower the signal; primary human HUVEC with PBMC
# Method in brief: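 Endpoint derived from bidirectional curve fitting versus DMSO of ELISA-measured PGE2 in LPS-stimulated human primary vascular co-culture (HUVEC with PBMC) harvested at 24 h.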
# [11] = read-out: Macrophage colony-stimulating factor (MCSF), CSF1 (gene 1435); assay: BSK_LPS_MCSF: BioMAP Diversity Plus: LPS Assay for Macrophage colony-stimulating factor (MCSF) Biomarker Activity (AID 2283083); conditions: actives raise or lower the signal; primary human HUVEC with PBMC
# Method in brief: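 Compound is added to a human vascular primary co-culture of umbilical vein endothelium and blood mononuclear cells. After 24 h, M-CSF is quantified by ELISA. Signal changes are fitted in both directions against DMSO.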
# [12] = read-out: Tissue Factor, F3 (gene 2152); assay: BSK_LPS_TissueFactor: BioMAP Diversity Plus: LPS Assay for Tissue Factor Biomarker Activity (AID 2283084); conditions: actives raise or lower the signal; primary human HUVEC with PBMC
# Method in brief: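 In this co-culture system of umbilical vein endothelium with PBMC, stimulated with LPS, cell-surface CD142 is detected by ELISA at 24 h. Endpoint values derive from bidirectional fitting, DMSO serving as baseline.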
# [13] = read-out: Tumor necrosis factor (Homo sapiens) (UniProt P01375); assay: BSK_LPS_TNFa: BioMAP Diversity Plus: LPS Assay for Tumour Necrosis Factor alpha (TNFa) Biomarker Activity (AID 2283085); conditions: actives raise or lower the signal; primary human HUVEC with PBMC
# Method in brief: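 Primary human vascular co-culture of HUVEC and PBMC; TNFa ELISA 24 h after treatment, analysed as increase or decrease relative to DMSO control.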
# [14] = read-out: Vascular cell adhesion molecule 1 (VCAM1), VCAM1 (gene 7412); assay: BSK_LPS_VCAM1: BioMAP Diversity Plus: LPS Assay for Vascular cell adhesion molecule 1 (VCAM1) Biomarker Activity (AID 2283086); conditions: actives raise or lower the signal; primary human HUVEC with PBMC
# Method in brief: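 Primary human vascular co-culture (umbilical vein endothelium plus PBMC) stimulated with LPS received chemical; 24 h later VCAM-1 was read by ELISA. Overt cytotoxicity was assessed by sulforhodamine B staining of parallel cultures at the same time point.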
# CD38, CD38 (gene 952) = assay: BSK_SAg_CD38: BioMAP Diversity Plus: SAg Assay for CD38 Biomarker Activity (AID 2283087); conditions: actives raise or lower the signal; primary human HUVEC with PBMC
# Method in brief: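 Fluorescence ELISA of cell-surface CD38 served as the read-out, with either increase or decrease fitted against DMSO controls. Cells were a human umbilical vein endothelium plus PBMC co-culture under SEB/TSST-1 stimulation, measured 24 h after dosing.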
# CD40, CD40 (gene 958) [15] = assay: BSK_SAg_CD40: BioMAP Diversity Plus: SAg Assay for CD40 Biomarker Activity (AID 2283088); conditions: actives raise or lower the signal; primary human HUVEC with PBMC
# Method in brief: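 Fluorescence ELISA read-out of CD40 from umbilical vein endothelium plus peripheral blood mononuclear cells, sampled 24 h after dosing. Values come from bidirectional curve fitting with DMSO as baseline.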
# CD69, CD69 (gene 969) = assay: BSK_SAg_CD69: BioMAP Diversity Plus: SAg Assay for CD69 Biomarker Activity (AID 2283089); conditions: actives raise or lower the signal; primary human HUVEC with PBMC;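 as to AC50: cell surface CD69 protein quantified by ELISA with fluorescence detection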
# Method in brief: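 ELISA, fluorescence read-out: CD69 on human umbilical vein endothelial cell + PBMC co-culture, 24 h post-dosing. Gain or loss of signal fitted bidirectionally against DMSO baseline.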
# [16] = read-out: Monocyte Chemoattractant Protein-1 (MCP1), CCL2 (gene 6347); assay: BSK_SAg_MCP1: BioMAP Diversity Plus: SAg Assay for Monocyte Chemoattractant Protein-1 (MCP1) Biomarker Activity (AID 2283090); conditions: actives raise or lower the signal; primary human HUVEC with PBMC
# Method in brief: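 MCP-1 levels in the endothelial–PBMC SAg co-culture were quantified by ELISA at 24 h post-dosing; both increases and decreases versus DMSO scored. Cytotoxicity monitored by SRB total protein in parallel cultures.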
# [17] = read-out: E-selectin (Homo sapiens) (UniProt P16581); assay: BSK_SAg_Eselectin: BioMAP Diversity Plus: SAg Assay for Eselectin Biomarker Activity (AID 2283091); conditions: actives raise or lower the signal; primary human HUVEC with PBMC
# Method in brief: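 Primary human endothelial cells and peripheral blood mononuclear cells were co-cultured and exposed to chemical for 24 hours. E-selectin levels were then quantified by ELISA, with bidirectional curve fitting normalised to DMSO controls.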
# [18] = read-out: Monokine induced gamma interferon (MIG), CXCL9 (gene 4283); assay: BSK_SAg_MIG: BioMAP Diversity Plus: SAg Assay for Monokine induced gamma interferon (MIG) Biomarker Activity (AID 2283092); conditions: actives raise or lower the signal; primary human HUVEC with PBMC
# Method in brief: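 ELISA readout of MIG/CXCL9; primary human umbilical vein endothelial cells co-cultured with peripheral blood mononuclear cells; 24 h post-dose; gain/loss fit vs DMSO baseline.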
structure (smiles),measurement,setting,value
Cc1c([N+](=O)[O-])cccc1[N+](=O)[O-],outcome,[1],inactive
same,outcome,[2],inactive
same,outcome,[3],inactive
same,outcome,"CD40, CD40 (gene 958) [4]",inactive
same,outcome,[5],inactive
same,outcome,[6],inactive
same,outcome,[7],inactive
same,outcome,[8],inactive
same,outcome,[9],inactive
same,outcome,[10],inactive
same,outcome,[11],inactive
same,outcome,[12],inactive
same,outcome,[13],inactive
same,outcome,[14],inactive
same,outcome,"CD38, CD38 (gene 952)",inactive
same,outcome,"CD40, CD40 (gene 958) [15]",inactive
same,outcome,"CD69, CD69 (gene 969)",inactive
same,outcome,[16],inactive
same,outcome,[17],inactive
same,outcome,[18],inactive
Cc1ccc([N+](=O)[O-])c([N+](=O)[O-])c1,outcome,[1],inactive
same,outcome,[2],inactive
same,outcome,[3],inactive
same,outcome,"CD40, CD40 (gene 958) [4]",inactive
same,outcome,[5],inactive
same,outcome,[6],inactive
same,outcome,[7],inactive
same,outcome,[8],inactive
same,outcome,[9],inactive
same,outcome,[10],inactive
same,outcome,[11],inactive
same,AC50,[12],active: 10.8 µM
same,AC50,[13],active: 31.8 µM
same,AC50,[14],active: 20 µM
same,outcome,"CD38, CD38 (gene 952)",inactive
same,outcome,"CD40, CD40 (gene 958) [15]",inactive
same,AC50,"CD69, CD69 (gene 969)",active: 6.68 µM
same,AC50,[16],active: 12.7 µM
same,AC50,[17],active: 7.37 µM
same,outcome,[18],inactive
CC(C)OP(C)(=O)OC(C)C,outcome,[1],inactive
same,outcome,[2],inactive
same,outcome,[3],inactive
same,outcome,"CD40, CD40 (gene 958) [4]",inactive
same,outcome,[5],inactive
same,outcome,[6],inactive
same,outcome,[7],inactive
same,outcome,[8],inactive
same,outcome,[9],inactive
same,outcome,[10],inactive
same,outcome,[11],inactive
same,outcome,[12],inactive
same,outcome,[13],inactive
same,outcome,[14],inactive
same,outcome,"CD38, CD38 (gene 952)",inactive
same,outcome,"CD40, CD40 (gene 958) [15]",inactive
same,outcome,"CD69, CD69 (gene 969)",inactive
same,outcome,[16],inactive
same,outcome,[17],inactive
same,outcome,[18],inactive
Cc1cccc([N+](=O)[O-])c1[N+](=O)[O-],outcome,[1],inactive
same,outcome,[2],inactive
same,outcome,[3],inactive
same,outcome,"CD40, CD40 (gene 958) [4]",inactive
same,outcome,[5],inactive
same,outcome,[6],inactive
same,outcome,[7],inactive
same,outcome,[8],inactive
same,outcome,[9],inactive
same,outcome,[10],inactive
same,outcome,[11],inactive
same,outcome,[12],inactive
same,AC50,[13],active: 2.84 µM
same,AC50,[14],active: 7.83 µM
same,outcome,"CD38, CD38 (gene 952)",inactive
same,outcome,"CD40, CD40 (gene 958) [15]",inactive
same,outcome,"CD69, CD69 (gene 969)",inactive
same,outcome,[16],inactive
same,outcome,[17],inactive
same,outcome,[18],inactive
O=[N+]([O-])c1cccc([N+](=O)[O-])c1,outcome,[1],inactive
same,outcome,[2],inactive
same,outcome,[3],inactive
same,outcome,"CD40, CD40 (gene 958) [4]",inactive
same,outcome,[5],inactive
same,outcome,[6],inactive
same,outcome,[7],inactive
same,outcome,[8],inactive
same,outcome,[9],inactive
same,outcome,[10],inactive
same,outcome,[11],inactive
same,outcome,[12],inactive
same,outcome,[13],inactive
same,outcome,[14],inactive
same,outcome,"CD38, CD38 (gene 952)",inactive
same,outcome,"CD40, CD40 (gene 958) [15]",inactive
same,outcome,"CD69, CD69 (gene 969)",inactive
same,outcome,[16],inactive
same,outcome,[17],inactive
same,outcome,[18],inactive
Cc1ccc([N+](=O)[O-])cc1[N+](=O)[O-],outcome,[1],inactive
same,outcome,[2],inactive
same,outcome,[3],inactive
same,outcome,"CD40, CD40 (gene 958) [4]",inactive
same,outcome,[5],inactive
same,outcome,[6],inactive
same,outcome,[7],inactive
same,outcome,[8],inactive
same,outcome,[9],inactive
same,outcome,[10],inactive
same,outcome,[11],inactive
same,outcome,[12],inactive
same,outcome,[13],inactive
same,outcome,[14],inactive
same,outcome,"CD38, CD38 (gene 952)",inactive
same,outcome,"CD40, CD40 (gene 958) [15]",inactive
same,outcome,"CD69, CD69 (gene 969)",inactive
same,outcome,[16],inactive
same,outcome,[17],inactive
same,outcome,[18],inactive
